## Binding of CDR-mutated scFvs to a peptide of the spike HR2 region

All variants were tested on one target, the spike HR2 peptide PDVDLGDISGINAS (SARS-CoV-2).

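Designed CDR sequences, proposed from the first random library and measured here. Their group label is 14L_GP_Gibbs (GP: Gaussian process model; Gibbs: Gibbs sampling; a sequence that several methods proposed may carry one label only). AlphaSeq pools MATa yeast showing the antibodies with MATalpha yeast showing the peptide. Pairs that bind mate more often; barcode pairs of the diploids are counted by sequencing. Scores were corrected for input abundance and mapped to Kd with protein pairs of known affinity run in the same pool. There are six technical replicates.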

Parent scFv Ab-14: VH joined to VL by a 15-residue (Gly4Ser)3 linker. Changes lie in the light chain CDRs alone.
VH: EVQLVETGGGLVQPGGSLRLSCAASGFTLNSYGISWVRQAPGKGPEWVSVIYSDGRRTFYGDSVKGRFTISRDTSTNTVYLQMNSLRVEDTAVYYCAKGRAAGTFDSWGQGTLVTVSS
VL: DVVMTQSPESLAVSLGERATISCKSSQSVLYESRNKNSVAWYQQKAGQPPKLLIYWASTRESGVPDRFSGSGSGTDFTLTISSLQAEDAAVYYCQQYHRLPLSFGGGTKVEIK

Positions count from residue 1 of the parent VL; S25G puts G in place of S. Affinities are written as log10 Kd with Kd in nM; a lower number is a better binder. "nd" marks a missing value. The strain was present, yet no cells mated with the target were sequenced in that replicate, which points to weak or no binding. In the paper, a design with two or fewer of six values counts as a poor binder. Empty control strains, which show no peptide, gave a signal in 4% of pairings with all light chain designs; the median was 2.64 and 95% of these signals were weaker than 1.59. No background was subtracted. Also given: how often the same scFv was detected with the empty control strains, with their mean in brackets. Values of this round are not directly comparable with the first-round values of the same sequences. Of ten entries with the parent sequence, four were seen in most replicates (averages 0.34 to 2.37), three in one and three in none, so single entries are noisy.

changes,log10 Kd (nM) by replicate,control signals
S25G/S28W/V29N/S38N/W56N/T59L/S62M,nd 2.27 2.73 nd nd 4.05,0/18
S25W/S26Q/V29S/L30D/K36F/W56N/E61C,0.64 0.54 0.11 0.30 0.29 0.22,1/18 (3.16)
S25V/S28L/V29N/K36A/S38N/W56N/T59L,-0.33 -0.29 -0.22 -0.13 -0.42 0.23,0/18
S25L/Q27M/V29D/K36G/W56H/S62K,-0.09 -0.22 -0.41 -0.30 -0.34 -0.02,0/18
S25A/Q27P/V29E/L30E/W56N,0.67 0.38 0.60 0.31 0.42 0.71,2/18 (3.16)
S25L/V29Y/L30C/Y31M/E32G/S33D/W56Q/S62M,1.93 1.45 1.05 0.59 0.82 1.00,1/18 (2.49)
S25V/S26Q/V29E/Y31G/N35H/K36F/W56N/T59K,0.40 0.40 0.12 0.15 0.26 0.33,2/18 (1.58)
K24I/S25L/S26Q/V29M/N35W/K36W/W56D/T59V/S62D,0.63 0.54 0.50 0.46 0.23 0.62,0/18
S26P/Q27F/L30Y/E32G/S33D/W56S,0.87 0.37 0.35 0.18 0.61 0.56,1/18 (3.60)
S25V/S26M/V29M/L30W/W56H/T59E/S62Q/S103Q,0.06 0.22 0.12 0.11 0.17 0.26,2/18 (2.19)
S25M/Q27M/S33D/K36Q/W56S/T59Q/E61L/S62D,0.04 -0.23 -0.15 -0.40 -0.23 -0.23,0/18
S25F/Q27M/V29E/L30D/K36S/W56N/S58Q/E61L,0.20 0.01 -0.10 -0.06 -0.07 0.30,2/18 (2.52)
S25V/V29Q/S33E/S38N/W56Q/T59D/E61M,-0.02 0.02 -0.23 -0.50 -0.18 -0.10,0/18
S25L/S26V/V29N/K36T/W56N/T59Q/E61L/S62D,0.38 0.22 0.14 -0.03 0.09 0.04,0/18
S25L/V29M/L30S/S33W/N37M/W56N/T59Q/E61L,0.41 0.13 0.24 0.16 0.09 0.33,2/18 (2.31)
S26M/Q27T/V29M/L30E/W56E/S62L,0.09 0.19 -0.09 -0.10 0.08 0.05,2/18 (2.24)
S25L/L30C/S33D/N35Q/W56N/E61M/P101K,1.47 1.46 2.19 1.85 2.21 2.83,1/18 (2.17)
S25L/S26Q/V29E/Y31M/S33E/K36S/W56H/T59L,0.05 -0.17 -0.28 -0.23 -0.09 -0.09,0/18
S25W/Q27N/L30M/Y31L/K36W/S38A/W56E/Q96D,0.94 0.97 0.88 0.87 1.32 1.24,1/18 (2.01)
S25L/S28Q/V29N/L30K/N35M/W56N/T59Q/S62L,0.48 0.05 -0.05 -0.30 -0.28 -0.29,0/18
S25L/S26L/Q27I/Y31D/K36D/W56N/T59H/E61L,0.71 0.73 0.65 0.42 0.32 0.85,3/18 (2.64)
S25L/V29Y/L30C/Y31M/E32G/S33D/W56Q/S62Q,0.38 -0.25 0.12 0.03 -0.15 0.27,1/18 (1.65)
S25V/S26D/S28D/V29D/S33N/W56Q,-0.32 -0.27 -0.34 -0.37 -0.46 -0.20,1/18 (1.68)
S25V/S28L/V29Q/L30D/W56N/T59Q/S62Q,0.24 0.11 0.26 0.13 0.47 0.21,0/18
S25V/S28G/V29M/L30W/N35M/W56D/T59Q/S103Q,0.66 0.35 0.67 0.47 0.24 0.38,0/18
S28Q/S33D/R34K/K36V/W56H/T59Q/E61M,1.51 1.17 1.65 1.21 1.45 1.18,1/18 (2.62)
S25L/Q27T/L30M/Y31L/K36V/W56D/T59Q/S62E,0.05 -0.11 -0.04 -0.30 -0.07 0.09,0/18
S25F/S28Q/V29M/S33E/K36S/S38N/W56H/T59H,0.90 0.47 1.13 0.74 0.38 0.91,1/18 (3.01)
S25L/S26Q/Q27F/V29E/L30E/W56M/E61C/S62D,0.25 0.19 -0.01 -0.04 0.12 -0.11,0/18
S25V/S26E/V29S/L30P/W56N/T59L/E61C,0.38 0.22 0.49 -0.10 0.65 0.76,0/18
S25L/S26E/Q27I/Y31Q/W56N/S62V,0.90 0.09 0.47 0.33 0.27 0.24,1/18 (1.48)
S25L/V29T/K36T/W56Q/E61L,0.05 0.17 0.19 -0.01 0.07 0.64,0/18
S25L/Q27T/S33Q/N35M/K36A/S38A/W56A/S62E,0.09 0.19 -0.14 -0.15 -0.26 0.24,1/18 (2.65)
K24L/S25L/S26Q/V29E/W56D/S62E,0.11 0.29 -0.08 -0.10 0.14 0.33,0/18
S25I/S26M/L30C/Y31M/W56N/T59K,0.54 0.21 0.58 0.22 0.13 0.63,1/18 (1.86)
S25F/S26E/S28L/V29W/L30G/Y31P/S33Q/W56N/T59Q/S62D,0.09 -0.23 -0.17 -0.21 0.00 -0.06,1/18 (4.49)
S25V/V29T/W56N/T59V/E61S,1.03 0.05 0.50 0.16 1.15 0.37,0/18
S25L/Y31G/E32Q/W56H/S62Q/Q96D,0.38 0.36 0.13 0.11 0.09 0.49,0/18
S25L/S26Q/Q27W/L30M/Y31L/E32Q/W56Q/E61M/S62M,0.39 0.21 0.91 0.22 0.70 0.75,0/18
S25L/S26Q/Y31Q/E32L/S33W/K36A/S38N/W56Q/T59H,0.20 0.05 0.09 0.12 -0.03 0.18,3/18 (4.26)
S25L/S26V/Q27P/V29E/N35Q/K36S/W56N/T59Y,0.01 0.09 0.10 0.13 0.08 0.07,0/18
S25L/Q27M/L30D/N35M/K36C/W56E/T59Q/S62E,0.36 0.56 0.26 0.10 0.19 0.74,1/18 (2.92)
S25Y/S26Q/V29E/L30G/K36Q/W56A/T59Q/S62E,0.33 0.11 -0.14 -0.12 -0.10 0.11,1/18 (1.92)
S25M/S26Q/Q27G/L30M/Y31M/E32L/K36C/W56Q/S62E,0.77 0.76 0.65 0.70 0.87 0.87,3/18 (3.54)
S25L/S26D/V29W/L30W/Y31G/S33W/W56H/S62Q,0.66 0.91 0.83 0.63 0.86 0.90,6/18 (2.77)
S25L/S26Q/L30G/K36Q/S38A/W56A/T59Q/S62E,0.76 0.52 0.21 0.28 0.30 0.71,1/18 (3.32)
S25L/Q27G/L30C/Y31M/E32L/K36D/W56D/S58N,0.06 -0.11 0.26 -0.04 0.04 0.05,0/18
S25F/S28Q/V29M/S38N/W56E/T59H,-0.26 -0.39 -0.53 -0.67 -0.49 -0.42,0/18
S25I/V29E/Y31E/S58T/T59V/S62V,0.25 0.59 0.35 0.34 -0.11 0.30,1/18 (2.60)
S25V/S26M/L30P/W56E/T59Q/S62L,0.44 -0.06 0.19 0.13 0.18 0.29,0/18

For reference, 8 entries of the list once more:

changes,log10 Kd (nM) by replicate,control signals
S25L/Q27T/S33Q/N35M/K36A/S38A/W56A/S62E,0.09 0.19 -0.14 -0.15 -0.26 0.24,1/18 (2.65)
S25V/S26E/V29S/L30P/W56N/T59L/E61C,0.38 0.22 0.49 -0.10 0.65 0.76,0/18
S25F/S28Q/V29M/S38N/W56E/T59H,-0.26 -0.39 -0.53 -0.67 -0.49 -0.42,0/18
S25L/S28Q/V29N/L30K/N35M/W56N/T59Q/S62L,0.48 0.05 -0.05 -0.30 -0.28 -0.29,0/18
S25M/S26Q/Q27G/L30M/Y31M/E32L/K36C/W56Q/S62E,0.77 0.76 0.65 0.70 0.87 0.87,3/18 (3.54)
S25L/V29Y/L30C/Y31M/E32G/S33D/W56Q/S62M,1.93 1.45 1.05 0.59 0.82 1.00,1/18 (2.49)
S25F/Q27M/V29E/L30D/K36S/W56N/S58Q/E61L,0.20 0.01 -0.10 -0.06 -0.07 0.30,2/18 (2.52)
S25V/S26D/S28D/V29D/S33N/W56Q,-0.32 -0.27 -0.34 -0.37 -0.46 -0.20,1/18 (1.68)

Values reported by Li et al. 2023, doi:10.1038/s41467-023-39022-2 (FLAb copy).